Legend:
Glutamate receptor 4 = Glutamate receptor 4 (Rattus norvegicus, UniProt P19493); assay: Agonist activity at rat recombinant GluA4 receptor flip isoform expressed in HEK293 cells assessed as effect on cyclothiazide-induced calcium flux by Fluo-4/AM staining-based fluorescence assay; assay type: functional, cell-based
Glutamate receptor 3 = Glutamate receptor 3 (Rattus norvegicus, UniProt P19492); assay: Agonist activity at rat recombinant GluA3 receptor flip isoform expressed in HEK293 cells assessed as effect on cyclothiazide-induced calcium flux by Fluo-4/AM staining-based fluorescence assay; assay type: functional, cell-based

Sequences of proteins named here, by UniProt entry; tags and fusion partners are left off. A change or cut given only in a name is not applied to a line headed by its entry.
UniProt P19493: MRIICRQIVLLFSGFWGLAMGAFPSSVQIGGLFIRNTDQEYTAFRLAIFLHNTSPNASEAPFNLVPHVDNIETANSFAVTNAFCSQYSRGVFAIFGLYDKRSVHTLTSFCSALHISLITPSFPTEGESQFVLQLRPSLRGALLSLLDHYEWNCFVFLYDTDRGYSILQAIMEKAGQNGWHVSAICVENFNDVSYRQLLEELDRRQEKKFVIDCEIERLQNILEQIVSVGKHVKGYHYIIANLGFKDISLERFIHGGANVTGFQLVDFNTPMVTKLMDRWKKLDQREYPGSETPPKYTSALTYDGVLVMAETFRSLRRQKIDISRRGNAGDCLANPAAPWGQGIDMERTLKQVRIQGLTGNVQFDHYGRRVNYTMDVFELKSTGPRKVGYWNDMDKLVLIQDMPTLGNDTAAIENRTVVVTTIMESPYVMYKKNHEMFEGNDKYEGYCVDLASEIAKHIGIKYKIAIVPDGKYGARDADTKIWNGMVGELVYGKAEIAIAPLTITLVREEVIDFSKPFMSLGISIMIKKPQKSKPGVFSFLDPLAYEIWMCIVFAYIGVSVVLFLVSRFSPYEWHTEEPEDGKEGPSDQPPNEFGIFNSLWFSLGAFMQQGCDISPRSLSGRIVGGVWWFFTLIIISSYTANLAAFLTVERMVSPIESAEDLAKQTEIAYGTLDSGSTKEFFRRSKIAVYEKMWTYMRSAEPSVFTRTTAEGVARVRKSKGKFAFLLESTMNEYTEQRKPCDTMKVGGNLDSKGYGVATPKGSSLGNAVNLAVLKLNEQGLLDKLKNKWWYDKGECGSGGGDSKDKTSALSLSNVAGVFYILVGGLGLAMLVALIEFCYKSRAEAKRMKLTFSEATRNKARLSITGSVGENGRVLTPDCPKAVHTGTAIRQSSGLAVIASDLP
UniProt P19492: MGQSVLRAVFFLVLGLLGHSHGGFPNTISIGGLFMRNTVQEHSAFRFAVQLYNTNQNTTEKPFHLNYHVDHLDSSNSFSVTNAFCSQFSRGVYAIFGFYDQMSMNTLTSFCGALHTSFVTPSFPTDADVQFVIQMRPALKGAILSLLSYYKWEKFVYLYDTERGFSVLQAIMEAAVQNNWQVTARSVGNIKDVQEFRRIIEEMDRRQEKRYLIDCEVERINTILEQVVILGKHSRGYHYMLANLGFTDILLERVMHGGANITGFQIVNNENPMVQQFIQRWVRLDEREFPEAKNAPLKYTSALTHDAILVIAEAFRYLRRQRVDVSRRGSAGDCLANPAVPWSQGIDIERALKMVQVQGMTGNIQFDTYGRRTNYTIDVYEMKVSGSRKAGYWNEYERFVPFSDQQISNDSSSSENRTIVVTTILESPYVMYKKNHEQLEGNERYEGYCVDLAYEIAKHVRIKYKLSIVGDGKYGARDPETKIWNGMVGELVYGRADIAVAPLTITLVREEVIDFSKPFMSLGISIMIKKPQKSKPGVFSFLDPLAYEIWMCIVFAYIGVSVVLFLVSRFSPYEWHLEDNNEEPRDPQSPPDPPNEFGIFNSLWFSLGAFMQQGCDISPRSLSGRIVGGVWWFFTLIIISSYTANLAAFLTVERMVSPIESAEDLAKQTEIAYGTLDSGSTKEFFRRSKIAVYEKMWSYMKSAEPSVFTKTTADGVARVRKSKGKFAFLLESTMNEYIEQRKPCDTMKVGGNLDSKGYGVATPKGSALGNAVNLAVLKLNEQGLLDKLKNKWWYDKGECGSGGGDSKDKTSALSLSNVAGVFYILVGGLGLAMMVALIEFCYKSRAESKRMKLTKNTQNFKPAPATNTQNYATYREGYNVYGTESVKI

In the case of `Cc1onc(O)c1CC(N)C(=O)O` (racemic) [(R,S)-AMPA], the EC50 (Glutamate receptor 4) is reported as 16 µM and the EC50 (Glutamate receptor 3) is reported as 37 µM.
